Reference: patent US20220194997A1, “SUMO PEPTIDES FOR TREATING NEURODEGENERATIVE DISEASES” (The Chinese University of Hong Kong, priority 2019, published 2022)

How the values were obtained:
Format in all cases: cell-based
SH-SY5Y cells [1] = experiment: MTT cell viability assay, aged α-synuclein cytotoxicity
SH-SY5Y cells [2] = experiment: MTT cell viability assay, aged NACore cytotoxicity
SH-SY5Y cells [3] = experiment: MTT cell viability assay, peptide alone; conditions: corresponding concentration, data not shown

`CC[C@H](C)[C@H](NC(=O)[C@H](Cc1ccc(O)cc1)NC(=O)[C@H](CCC(=O)O)NC(=O)CNC(=O)[C@H](CCC(=O)O)NC(=O)[C@H](CCCCN)NC(=O)[C@H](CCCCN)NC(=O)[C@@H](N)CC(=O)O)C(=O)N[C@@H](CCCCN)C(=O)N[C@@H](CC(C)C)C(=O)N[C@@H](CCCCN)C(=O)N[C@H](C(=O)N[C@H](C(=O)NCC(=O)N[C@@H](CCC(N)=O)C(=O)N[C@@H](CC(=O)O)C(=O)N[C@@H](CO)C(=O)N[C@@H](CO)C(=O)N[C@@H](CCC(=O)O)C(=O)N[C@H](C(=O)N[C@@H](Cc1c[nH]cn1)C(=O)N[C@@H](Cc1ccccc1)C(=O)N[C@@H](CCCCN)C(=O)N[C@H](C(=O)N[C@@H](CCCCN)C(=O)N[C@@H](CCSC)C(=O)N[C@H](C(=O)N[C@H](C(=O)N[C@@H](Cc1c[nH]cn1)C(=O)N[C@@H](CC(C)C)C(=O)N[C@@H](CCCCN)C(=O)N[C@@H](CCCCN)C(=O)N[C@@H](CC(C)C)C(=O)N[C@@H](CCCCN)C(=O)N[C@@H](CCC(=O)O)C(=O)N[C@@H](CO)C(=O)N[C@@H](Cc1ccc(O)cc1)C(=O)N[C@@H](CS)C(=O)N[C@@H](CCC(N)=O)C(=O)N[C@@H](CCCNC(=N)N)C(=O)N[C@@H](CCC(N)=O)C(=O)O)[C@@H](C)O)[C@@H](C)O)C(C)C)[C@@H](C)CC)[C@@H](C)CC)C(C)C` [SUMO1(15-55)] was tested, and the “rescue of cell viability from aged α-synuclein cytotoxicity” value (SH-SY5Y cells [1]; equimolar ratio) was “complete rescue”, the “rescue of cell viability from aged α-synuclein cytotoxicity” value (SH-SY5Y cells [1]; substoichiometric amounts) was “partial rescue” and the “rescue of cell viability from aged NACore cytotoxicity” value (SH-SY5Y cells [2]; equimolar ratio) was “complete rescue”. The “rescue of cell viability from aged NACore cytotoxicity” value (SH-SY5Y cells [2]; substoichiometric amounts) was “partial rescue” and the “cell viability with peptide alone” value (SH-SY5Y cells [3]) was “did not affect cell viability”.
